Data: article PMC3718777

Molecular target: rat α3β4 nicotinic acetylcholine receptor (rat) (UniProt P04757)

amyloid-β peptide, 40 amino acids long (Aβ40), soluble (from UniProt P05067 672-711)
response of α3β4 nAChRs in HEK cells to 0.2 mM CCh plus 200 nM Aβ40 in the presence of 0.5 or 2 µM IQ, percent of control currents (IQ does not prevent the inhibition by Aβ40) (% of control currents): 70
